Assay results from patent US10131558B1, “Compositions, methods, and/or systems for managing sulfide” (priority 2016, dated 2018).

Assay: Treatment of sulfides in municipal wastewater using ferric chelants and hydrogen peroxide
Conditions: no H2O2, 30 min

Sulfide Remaining (Series One, start 25.4 ppm, chelant only): 25.2 ppm
Sulfide Remaining (Series Two, start 42.3 ppm, chelant only at 20 ppm): 41.5 ppm
SMILES: O=C([O-])CN(CCO)CC(=O)[O-].[Fe+3] [Fe-HEIDA]
